Measured values reported in patent US11491109B2, “Pharmaceutical compositions for basic or neutral, low molecular weight compounds” (Hoffmann-La Roche Inc., priority 2017, dated 2022).

Assay: Equilibrium solubility in EPO-solutions, 96-well SORESOS assay
Details: vs measured solubility in water

COc1ccccc1OCCNCC(O)COc1cccc2[nH]c3ccccc3c12 (stereo not shown) [CVD, carvedilol]
Non-adjusted SE in EPO 1.0% (in brackets): 97.9
